Test results as given in paper PMC7400623, “Effect of lysine side chain length on histone lysine acetyltransferase catalysis” (Scientific Reports, 2020).

Sequences of proteins named here, by UniProt entry; tags and fusion partners are left off. Residues count along the entry.
UniProt Q92831, 498-658: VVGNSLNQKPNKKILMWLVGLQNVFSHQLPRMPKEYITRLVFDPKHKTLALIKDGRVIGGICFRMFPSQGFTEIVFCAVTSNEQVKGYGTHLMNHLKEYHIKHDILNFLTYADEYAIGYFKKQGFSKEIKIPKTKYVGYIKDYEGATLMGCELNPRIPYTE
UniProt Q92830, 497-662: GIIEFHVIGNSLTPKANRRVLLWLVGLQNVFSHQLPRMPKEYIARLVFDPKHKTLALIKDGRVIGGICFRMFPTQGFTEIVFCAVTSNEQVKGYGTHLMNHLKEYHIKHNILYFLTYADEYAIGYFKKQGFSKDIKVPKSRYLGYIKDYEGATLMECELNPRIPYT

Key:
Format in all cases: biochemical
PCAF (KAT2B) = biological target: T1, PCAF (KAT2B) (Homo sapiens, UniProt Q92831); test: MALDI-TOF MS enzymatic assay of PCAF-catalyzed acetylation of histone peptides; settings: 100 µM peptide, 300 µM AcCoA, pH 8.0, 37 °C; for acetylation (conversion to acetylated peptide) by PCAF: after 3 h, 2 µM PCAF, 50 mM Hepes, 0.1 mM EDTA, 1 mM DTT, MALDI-TOF MS
T1 construct: Human PCAF catalytic domain (residues 498–658 in pET16b vector); SNAP-tag; His-tag; made in house; host or cells: E. coli BL21(DE3)
Protocol: (§1) MALDI-TOF MS enzymatic assays were carried out to investigate KAT-catalyzed acetylation of synthetic histone peptides. The enzymatic activity of the recombinantly expressed human KATs was measured at different time points (2 µM KAT enzyme, 100 µM histone peptide, 300 µM AcCoA, buffer: 50 mM Hepes, 0.1 mM EDTA, 1 mM DTT, pH = 8.0, 37 °C, hereafter used as standard conditions) (Fig. 3b,c). MOF catalyzed full acetylation of H4K16 in 30 min, whereas GCN5 and PCAF catalyzed quantitative acetylation of H3K14 in 15 min and H3K9 only after 2–3 h (Fig. 4b, h and Supplementary Figs. 25–28). It is noteworthy that diacetylation of histone peptides was not detected under our assay conditions, due to preacetylation of the secondary site on H3. […] As further control, H4 and H3 peptides containing stereochemically inverted D-lysine were synthesized.
(§2) The KAT enzymatic activity towards histone peptides was measured at different time points under standard conditions (2 µM KAT enzyme, 100 µM peptide, 300 µM AcCoA) in the reaction buffer (50 mM HEPES, 0.1 mM EDTA, 1 mM DTT, pH = 8.0). The reactions were carried out in a final volume of 50 µL and shaken up in a Thermomixer C at 750 rpm, at 37 °C. The reactions were quenched by the addition of TFA 10% in MilliQ water at different time points. All reactions were aliquoted and mixed 1:2 with a solution of α-Cyano-4-hydroxycinnamic acid (CHCCA) in 1:1 MQ and ACN (0.1% TFA) and loaded onto an MTP 384 polished steel target to be analyzed by a UltrafleXtreme-II tandem mass spectrometer (Bruker, Billerica, MA, USA).

GCN5 (KAT2A) = biological target: T2, GCN5 (KAT2A) (Homo sapiens, UniProt Q92830); test: MALDI-TOF MS enzymatic assay of GCN5-catalyzed acetylation of histone peptides; settings: 300 µM AcCoA, pH 8.0, 37 °C; for acetylation (conversion to acetylated peptide) by GCN5: after 3 h, 2 µM GCN5, 100 µM peptide, 50 mM Hepes, 0.1 mM EDTA, 1 mM DTT, MALDI-TOF MS
T2 construct: Human GCN5 catalytic domain (residues 497–662 in pET28a-LIC vector); His-tag; host or cells: E. coli BL21(DE3)
Protocol: as §1, §2

PCAF catalytic domain = biological target: T3, PCAF catalytic domain (Homo sapiens, UniProt Q92831); test: MALDI-TOF MS kinetics assay, PCAF
T3 construct: Human PCAF catalytic domain (residues 498–658 in pET16b vector); SNAP-tag; His-tag; made in house; host or cells: E. coli BL21(DE3)
Excerpt: Kinetic analysis of bi-substrate enzymes, such as KATs, is reckoned to be challenging and dependent on many factors. Firstly, given the nature of these enzymes, the binding of one of the two substrates directly influences the binding of the other (with a direct effect on the Michaelis–Menten parameter Km). […] Therefore, to obtain data that would allow us to directly compare the catalytic properties of the selected KATs towards our selection of histone peptides bearing lysine analogs with longer side chains, two strategies to standardize our kinetic evaluation were taken: i) all the experiments were carried out with the same saturating concentrations of AcCoA and ii) only KATs catalytic domains were employed in the study. […] In contrast, kcat values decreased substantially with an increase of the side chain length, both in the K14 and K9 peptide series, and for both PCAF and GCN5 (Table 1).
Histone peptides kinetics evaluation was carried out with a MALDI-TOF MS assay under steady-state conditions[57],[58]. Histone peptides (1,050–0 µM) were incubated with AcCoA (100 µM) and the reactions were started by the addition of the enzyme (MOF 570 nM, PCAF and GCN5 50 nM) in a final volume of 20 µL in kinetic buffer (50 mM HEPES, 0.1 mM EDTA, 0.01% TRITON-X, pH = 7.4). For histone peptides bearing unnatural lysine analogs, higher concentration of enzymes was used (MOF, PCAF and GCN5 2 µM). Steady state conditions were guaranteed by employing saturating concentrations of AcCoA (> 5 × Km value). AcCoA stock solutions in milli-Q water were calibrated with a NanoDrop 2000 spectrophotometer (Thermo Scientific, Waltham, MA, USA), employing the characteristic molar extinction coefficient ε260nm = 16,400 M^−1 cm^−1. Reactions were incubated at 37 °C, shaken at 750 rpm and quenched with TFA 10% in milli-Q water at different time points, within linear production of acetylated peptides extrapolated from time-course plots. All reactions were aliquoted and mixed 1:2 with a solution of α-cyano-4-hydroxycinnamic acid (CHCCA) in 1:1 MQ and ACN (0.1% TFA) and loaded onto MTP 384 polished steel target to be analyzed by UltrafleXtreme-II tandem mass spectrometer (Bruker). The amount of acetylated peptide was calculated by integration of the product peak area and divided it by the amount of unacetylated peptide, taking in account all the ionic species, at any concentration points using the FlexAnalysis software. Kinetic values were extrapolated by fitting V0 values (µM of produced peptide per minutes) and histone peptide concentrations to the Michaelis–Menten equation using the GraphPad Prism 5 software. Kinetic experiments were carried out in duplicates and final values are reported as value ± SD.

| Sequence | time to quantitative acetylation by PCAF (PCAF (KAT2B); standard conditions: 2 µM PCAF) | time to quantitative acetylation by GCN5 (GCN5 (KAT2A); standard conditions: 2 µM GCN5, 100 µM peptide) | acetylation (conversion to acetylated peptide) by PCAF (PCAF (KAT2B)) | acetylation (conversion to acetylated peptide) by GCN5 (GCN5 (KAT2A)) | kcat^app (PCAF catalytic domain; PCAF catalytic domain 50 nM (2 µM for unnatural analogs), peptide 1,050–0 µM, AcCoA 100 µM (saturating), 50 mM HEPES, 0.1 mM EDTA, 0.01% TRITON-X, pH 7.4, 37 °C, MALDI-TOF MS, duplicates, value ± SD, SD) | Km (PCAF catalytic domain; PCAF catalytic domain 50 nM (2 µM for unnatural analogs), peptide 1,050–0 µM, AcCoA 100 µM, pH 7.4, 37 °C, MALDI-TOF MS, duplicates, value ± SD, SD, read-out: Km^app) | decrease (drop) of kcat/Km for PCAF compared to the natural lysine peptide (PCAF catalytic domain; PCAF, K14 series vs H3K14, K9 series vs H3K9) | kcat^app/Km^app (PCAF catalytic domain; PCAF, same kinetics conditions) |
| --- | --- | --- | --- | --- | --- | --- | --- | --- |
| ARTKQTAR K9STGGK Ac A [H3K9, 15-mer H3 peptide, residues 1–15, synthetically acetylated K14, reference compound] | 2 to 3 h | 2 to 3 h | – | – | – | – | – | – |
| ARTKQTAR h2K9STGGK Ac A [H3h2K9, 15-mer histone H3 peptide (K14ac) with h2K at position 9] | – | – | 33% | 14% | 0.0012 ± 0.00017 s⁻¹ | 179 ± 37 µM | 30 fold | 6.7 M⁻¹ s⁻¹ |
| ARTKQTAR hK 9STGGK Ac A [H3hK9, 15-mer histone H3 peptide (K14ac) with hLys at position 9] | – | – | 50% | 30% | – | – | – | – |
